# Test results reported in PubChem BioAssay AID588852 (The Scripps Research Institute Molecular Screening Center, 2011).
# The chains behind the UniProt entries cited, without tags or fusion partners.
# UniProt P11229, whole entry: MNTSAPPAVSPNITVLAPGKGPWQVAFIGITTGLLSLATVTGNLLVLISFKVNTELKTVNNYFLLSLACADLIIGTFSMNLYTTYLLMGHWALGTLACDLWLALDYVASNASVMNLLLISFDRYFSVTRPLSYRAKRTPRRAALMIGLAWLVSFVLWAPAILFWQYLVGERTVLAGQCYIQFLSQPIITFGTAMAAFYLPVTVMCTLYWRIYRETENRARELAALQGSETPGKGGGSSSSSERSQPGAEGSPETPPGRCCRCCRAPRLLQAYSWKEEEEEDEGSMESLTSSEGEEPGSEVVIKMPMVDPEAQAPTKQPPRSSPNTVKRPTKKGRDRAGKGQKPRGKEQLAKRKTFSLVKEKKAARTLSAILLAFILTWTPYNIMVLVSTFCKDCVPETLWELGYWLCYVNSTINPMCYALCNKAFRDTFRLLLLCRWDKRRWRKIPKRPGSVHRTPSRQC
# This is a selection; strong and weak results do not stand in their true shares. Some salts and complexes are drawn in separate pieces, as the source files them; their charges need not balance. Active and inactive are the calls of the source.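 The calls were made as follows: active = percent inhibition above its own plate's cutoff, namely the mean of that plate's compound wells plus 3 SD; inactive = the rest.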
# Biological target: Muscarinic acetylcholine receptor M1 (Homo sapiens) (UniProt P11229)
# Assay: human M1 muscarinic receptor antagonists, primary screen, CHO-K1 cells, Fluo-8 calcium fluorescence, 1536-well (AID 588852);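 also: peak over basal fluorescence ratio during 140 s after agonist addition; 0% = ACh EC80 plus DMSO and 100% = DMSO alone without agonist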
# Conditions: CHO-K1 hM1, Fluo-8 calcium fluorescence, ACh EC80 antagonist; at 3 µM; stronger effect = higher value
row,SMILES,inhibition
1,CP(=O)(OCCOc1ccccc1)OCCOc1ccccc1,inactive: -1.21%
2,CCCCCCCCCCCCCCCC1C[N+](C)(C)CCOP(C)(=O)O1 (stereo not drawn),active: 64.9%
3,CP(=O)(Nc1ccc(Cl)cc1Cl)Oc1ccccc1 (stereo not drawn),inactive: -15.6%
4,Cc1cc(C)cc(OP(C)(=O)Nc2cccc(C(F)(F)F)c2)c1 (stereo not drawn),inactive: -0.11%
5,O=C1C(O)=C([N+](=O)[O-])C(=O)C(O)=C1[N+](=O)[O-],inactive: 0.65%
6,COc1ccc(OP(C)(=O)Nc2ccccc2Br)cc1 (stereo not drawn),inactive: -9.09%
7,COc1ccccc1OP(C)(=O)Nc1ccc(C)c(C)c1 (stereo not drawn),inactive: -7.72%
8,O=[N+]([O-])c1cc([N+](=O)[O-])c(Nc2ccccn2)c([N+](=O)[O-])c1,inactive: -1.6%
9,Cc1c(NP(C)(=O)Oc2ccc(C(C)C)cc2)c(=O)n(-c2ccccc2)n1C (stereo not drawn),inactive: -7.22%
10,CCc1ccc(OP(C)(=O)O)cc1,inactive: -4.8%
11,COc1ccccc1OP(C)(=O)Nc1ccc(C)cc1C (stereo not drawn),inactive: -12.1%
12,CP(=O)(Nc1ccccn1)Oc1ccccc1 (stereo not drawn),inactive: -23%
13,COc1ccccc1OP(C)(=O)Nc1ccc(Br)cc1 (stereo not drawn),inactive: -8.2%
14,COc1ccc(OP(C)(=O)Nc2ccccn2)cc1 (stereo not drawn),inactive: -5.45%
15,CP(=O)(Nc1ccc(Cl)cc1)Oc1ccc(F)cc1 (stereo not drawn),inactive: -12.2%
16,CC(C)(C)c1ccc(OP(C)(=O)O)cc1,inactive: -7.34%
17,COc1ccccc1OP(C)(=O)Nc1ccccc1Br (stereo not drawn),inactive: -6.84%
18,CN(C)C(=O)c1c([N+](=O)[O-])cc([N+](=O)[O-])cc1[N+](=O)[O-],inactive: 0.37%
19,COc1ccc(OP(C)(=O)Nc2ccc(Br)cc2)cc1 (stereo not drawn),inactive: -4.9%
20,CCc1ccc(OP(C)(=O)Nc2cccnc2)cc1 (stereo not drawn),inactive: 7.25%
21,CP(=O)(Oc1ccccc1)N1CCOC1=O (stereo not drawn),inactive: -26.4%
22,COc1ccccc1OP(C)(=O)Nc1c(C)n(C)n(-c2ccccc2)c1=O (stereo not drawn),inactive: -19.8%
23,CP(=O)(OC12CC3CC(CC(C3)C1)C2)OC12CC3CC(CC(C3)C1)C2,inactive: -1.4%
24,CCOC(=O)c1ccc(NP(C)(=O)Oc2ccc(Cl)cc2)cc1 (stereo not drawn),inactive: -2.86%

row,SMILES,inhibition
1,O=[N+]([O-])c1cc([N+](=O)[O-])c(NCC2CCS(=O)(=O)C2)c([N+](=O)[O-])c1 (stereo not drawn),inactive: -2.18%
2,Cc1cc(-c2cccc3ccccc23)c(C)cn1.O=[N+]([O-])c1cc([N+](=O)[O-])c(O)c([N+](=O)[O-])c1,inactive: -9.07%
3,O=[N+]([O-])c1ccc(OP2(=O)COCCO2)cc1 (stereo not drawn),inactive: -17.3%
4,O=C(OC1CN2CCC1CC2)c1cccc(Cl)c1 (stereo not drawn),active: 85.8%
5,Cc1c(C(c2ccc3c(c2)OCO3)c2c(C)n(C)n(-c3ccccc3)c2=O)c(=O)n(-c2ccccc2)n1C.O=[N+]([O-])c1cc([N+](=O)[O-])c(O)c([N+](=O)[O-])c1,inactive: -10.1%
6,CN(C)C1(CNC(=O)c2ccc(Cl)c(S(N)(=O)=O)c2)CCCCC1,inactive: -4.38%
7,COc1ccc(OP(C)(=O)Nc2cccc(Br)c2)cc1 (stereo not drawn),inactive: 2.48%
8,COc1ccc(NP(C)(=O)Oc2ccccc2OC)cc1 (stereo not drawn),inactive: 8.5%
9,CP(=O)(Nc1ccc2c(c1)OCCO2)Oc1ccccc1 (stereo not drawn),inactive: 3.54%
10,Cc1ccccc1NP(C)(=O)Nc1ccccc1C,inactive: -21.8%
11,CP(=O)(Nc1ccc(SC(F)(F)F)cc1)Oc1ccc(F)cc1 (stereo not drawn),inactive: 6.78%
12,CCOP(C)(=S)SCC(=O)NC(C)(CC)C(=O)O (stereo not drawn),inactive: -14.8%
13,O=C(OC1CN2CCC1CC2)c1ccc([N+](=O)[O-])cc1 (stereo not drawn),inactive: -8.19%
14,COc1ccc2c(c1O)-c1c(O)c(OC)cc3c1[C@H](C2)[N+](C)(C)CC3.O=[N+]([O-])c1cc([N+](=O)[O-])c([O-])c([N+](=O)[O-])c1[O-],inactive: -3.31%
15,O=[N+]([O-])c1cc([N+](=O)[O-])c(Nc2ccc(Cl)cc2)c([N+](=O)[O-])c1,inactive: 27.1%
16,CC(C)c1ccc(OP(C)(=O)Nc2ccc(SC(F)(F)F)cc2)cc1 (stereo not drawn),inactive: 5.89%
17,CP(=O)(Nc1ccccc1F)Oc1ccccc1 (stereo not drawn),inactive: -6.01%
18,O=C(OC1CN2CCC1CC2)c1ccccc1 (stereo not drawn),active: 88.5%
19,Cc1c([N+](=O)[O-])cc([N+](=O)[O-])c(Br)c1[N+](=O)[O-],inactive: -3.58%
20,CCCCCOc1ccc(NP(C)(=O)Oc2ccc(Cl)cc2Cl)cc1 (stereo not drawn),inactive: -0.59%
21,O=[N+]([O-])c1cc([N+](=O)[O-])c(OC2CCCCC2O)c([N+](=O)[O-])c1 (stereo not drawn),inactive: -5.64%
22,CP(=O)(Nc1ccccc1)Oc1ccc(F)cc1 (stereo not drawn),inactive: -15%
23,COc1ccc(OP(C)(=O)Nc2ccc(SC(F)(F)F)cc2)cc1 (stereo not drawn),inactive: 2.95%
24,CCOC(=O)c1ccc(NP(C)(=O)Oc2ccc(F)cc2)cc1 (stereo not drawn),inactive: 0.1%
